Reference: ChEMBL document CHEMBL1138481, “Compounds binding to the S2-S3 pockets of thrombin” (J Med Chem, 2009)

Assay: Inhibition of human alpha thrombin by chromogenic substrate enzyme assay

- IC50: 8 nM
Compound: N=C(N)c1ccc(CNC(=O)[C@@H]2CCN2C(=O)[C@H](NCC(=O)O)C2CCCCC2)cc1 [MELAGATRAN]
